Earlier results in patent US5250572A (priority 1992, dated 1993).

Test system: serotonin uptake
Conditions: words; background, known from earlier patents; cited from earlier work

CNCCC(Oc1ccc(C(F)(F)F)cc1)c1ccccc1 (racemic) [fluoxetine hydrochloride, dl-N-methyl-3-[4-(trifluoromethyl)phenoxy]-3-phenylpropylamine]
serotonin / monoamine uptake blockade: selective serotonin (5-hydroxytryptamine, 5HT) uptake inhibitor

Counter-ions that a name gives are not always drawn.
